Tests used:
Histamine H3 receptor [1] = biological target: T1, Histamine H3 receptor (Rattus norvegicus, UniProt Q9QYN8); assay: Binding affinity towards rat cortical H3 receptor
Histamine H3 receptor [2] = biological target: T1, Histamine H3 receptor; assay: Affinity towards rat cortical H3 receptor using radioligand binding assay; conditions: read-out: pA2 (converted)

The chains behind the UniProt entries cited, without tags or fusion partners. Where a name states a change or a piece, a line headed by the entry shows the natural chain unless it says otherwise.
UniProt Q9QYN8: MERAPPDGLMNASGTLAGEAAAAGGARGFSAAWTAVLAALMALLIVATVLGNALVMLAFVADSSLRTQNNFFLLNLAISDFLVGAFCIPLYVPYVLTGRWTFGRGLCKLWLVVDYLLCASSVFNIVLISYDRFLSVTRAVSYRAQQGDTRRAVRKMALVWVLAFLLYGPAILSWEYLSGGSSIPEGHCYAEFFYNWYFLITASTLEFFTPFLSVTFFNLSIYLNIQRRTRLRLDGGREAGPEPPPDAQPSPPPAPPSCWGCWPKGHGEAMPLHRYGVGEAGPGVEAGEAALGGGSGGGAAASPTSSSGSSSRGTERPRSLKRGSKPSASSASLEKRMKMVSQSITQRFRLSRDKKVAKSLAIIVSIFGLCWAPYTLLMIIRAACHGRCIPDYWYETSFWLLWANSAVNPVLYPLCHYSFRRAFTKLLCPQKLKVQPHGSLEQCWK

Kb (Histamine H3 receptor [2]) [nM] | SMILES | Ki (Histamine H3 receptor [1]) [nM]
 | C[C@H]1CC[C@H](C)N1CCCOc1ccc(-c2ccc(C(=O)N3[C@@H](C)CC[C@@H]3C)cc2)cc1 | 4.17
1.95 | C[C@H]1CC[C@H](C)N1CCCOc1ccc(-c2ccc(C(=O)N3CCOCC3)cc2)cc1 [A-349,821] | 

Source: ChEMBL document CHEMBL1136688, “Synthesis and SAR of aminoalkoxy-biaryl-4-carboxamides: novel and selective histamine H3 receptor antagonists” (Bioorg Med Chem Lett, 2003)
